scFv variants of Ab-14 (light chain) against a SARS-CoV-2 spike peptide

Data: MIT Lincoln Laboratory AlphaSeq set, Li et al. 2023, doi:10.1038/s41467-023-39022-2, as distributed in FLAb.

Target peptide (SARS-CoV-2 spike, HR2 region): PDVDLGDISGINAS

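Designed CDR sequences, proposed from the first random library and measured here. Group labels follow the data file (Ctrl: baseline library sampled from a position-specific scoring matrix, with some repeated check sequences; En: ensemble of fine-tuned language models; GP: Gaussian process model; HC: hill climbing; Gen: genetic algorithm; Gibbs: Gibbs sampling; a sequence that several methods proposed may carry one label only). The assay is AlphaSeq: two haploid yeast populations carry antibody and antigen on their surface. After mating in shaken culture at 30 °C for 16 h, diploids were selected and their barcode pairs sequenced. Read counts were normalised to the haploid input and turned into Kd by a linear fit to BCL2-family pairs of known affinity, for each replicate. There are six technical replicates.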

The variants keep the heavy chain, the linker and the frameworks of Ab-14 (scFv order VH, the linker GGGGSGGGGSGGGGS, VL).
VH: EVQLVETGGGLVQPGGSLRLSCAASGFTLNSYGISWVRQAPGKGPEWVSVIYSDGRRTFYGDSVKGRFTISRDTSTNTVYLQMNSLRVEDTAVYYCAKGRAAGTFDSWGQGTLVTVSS
VL: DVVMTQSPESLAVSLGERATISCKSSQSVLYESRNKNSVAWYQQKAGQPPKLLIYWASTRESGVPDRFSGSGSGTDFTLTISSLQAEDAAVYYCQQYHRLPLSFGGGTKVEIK

The parent's light chain CDRs are KSSQSVLYESRNKNSVA, WASTRES, QQYHRLPLS; each variant's own CDRs replace them letter for letter.
Each Kd is an estimate from the mating assay, the geometric mean of the replicates in which the pair was seen; lower is stronger.
Where no diploid with the target was found in any replicate, the entry reads "nd": below detection, most likely a poor binder, though not proof of it.
A sequence measured in both rounds can read differently, since the two assays cover different ranges.
Empty control strains, which show no peptide, gave a signal in 4% of pairings with all light chain designs; the median was 430 nM and 95% of these signals were weaker than 38 nM. No background was subtracted.
The parent sequence was in this pool as ten entries: three were never detected, three once, and four in most replicates, with averages from 2.2 nM to 240 nM.
The authors averaged sequences with at least three values out of six and counted those with two or fewer as poor binders.

CDR-L1 | CDR-L2 | CDR-L3 | group | apparent Kd | replicates with signal
KSSISYLYESENKNSVA | EASTRES | QQYHRLPLS | GP_HC | 890 pM | 6/6
MISQLMNMGQFAINSVA | QASLRYN | QQYDRLPLM | En_Gen | 130 nM | 2/6
KSSQSVLYESREKNSVA | WASTRES | QQYHRLPLS | Ctrl | 15 µM | 1/6
YLVQKADYMDSERNNIA | NGRLRNE | QQYFHLPLT | En_Gibbs | 13 nM | 6/6
KSSQSVLYESRNKNSVA | WASTRPQ | QQYHRTPLS | Ctrl | nd | 0/6
KMSQSVLMEARNKNSVA | DASLRES | QQYHRLPLS | GP_HC | 630 pM | 6/6
KLSMSWPLLWRNHNSVA | SASTREQ | QQYHRLPLS | GP_Gibbs | 2.2 nM | 6/6
KSSQSVLMESRNKNSVA | SASTRES | QQYHRLPLS | Ctrl | 20 nM | 6/6
KLLQVTENMQLNRNSVA | HMSTRED | QQYHSLPLS | En_HC | 3.6 nM | 6/6
KLSQQDEYQSRNKNQVA | NASTRYS | QQYHRLPLS | GP_Gibbs | 1.6 nM | 6/6
KLYQSMGYLSRNKNSIA | DMERREN | QQYHRLPLS | En_HC | 3.0 nM | 6/6
KLQQSVPYESRNKNSVA | QASTRES | QQYHRLPLS | GP_Gen | 2.2 nM | 6/6
HISQSFMTESVWRNNIA | HQSTREQ | QQYDRLPFS | En_HC | 2.9 nM | 6/6
TVSQVHEMLSHNKNSVA | DMNTREK | QQYDRLPLS | En_HC | 10 nM | 6/6
QIGMLMNFELQKINNVA | QMETRVN | QQYDRLPLS | En_Gen | 1.8 nM | 6/6
KVSEFMRGLMQKTDSIA | DNVTREN | QQYDRLPLS | En_Gen | 1.3 µM | 6/6
KLSATYRYESQNKNSIA | EMTTREQ | QCYHRLPLS | En_HC | 690 pM | 6/6
KFGQSVLMGSYVRNSVA | QMSTREN | QQYDRLPLS | En_HC | 7.5 nM | 6/6
MISQVMNTLTRNGNNVA | DLTNRED | QQYFRLPLS | En_Gen | 5.6 nM | 6/6
HLSPSVLYESRNKNSVA | NASTRES | QQYHRLPLQ | GP_HC | 200 pM | 6/6
KLEQSQLYESRNKNSVA | NASQRER | QQYHRLPLS | GP_Gibbs | 1.0 nM | 6/6
KLQQQHLYESRNKNSVA | SASTREE | QQYHRLPLS | GP_HC | 1.4 nM | 6/6
HMQNEWQGDSRQENNVA | ETTVVCT | QQYATLPLT | En_Gibbs | 110 nM | 6/6
KLLQTVFNGRRNRNNVA | HMTMRED | QQYFRLPLS | En_HC | 510 nM | 2/6
SISGFMKSLSAHMNSVA | DMTNRED | QQYDRLPLS | En_Gen | 22 nM | 6/6
KLQFSCLYESRNKNSVA | SASYRLS | QQYHRLPLS | GP_Gibbs | 11 nM | 6/6
KSLQSVLYESRNKNSVA | EASTRED | QQYHQLPLS | GP_HC | 1.9 nM | 6/6
KLSQVTHSESRNKNSIA | EMVTREN | QQYDRLPLS | En_HC | 5.1 nM | 6/6
KIGMTLNTLMHTKNNVA | DLVTREH | QQYHRLPLS | En_Gen | 740 pM | 6/6

Further variants, results first:

apparent Kd | replicates with signal | CDR-L1 | CDR-L2 | CDR-L3 | group
7.6 µM | 1/6 | KSSPSMLDESRSKNSVA | KASTRES | QQYHREPLS | Ctrl
190 nM | 4/6 | VLSDTIENQADEADNIA | DATETSK | QQYARLPLS | En_Gibbs
4.7 nM | 6/6 | KIYQLGLGSQKIMNNIA | QTSIREL | QSYNRLPLS | En_Gibbs
nd | 0/6 | KLMNQMGGIQIMKNSIA | NLEIGAR | QQYAHLPLV | En_Gibbs
3.5 nM | 6/6 | KFPQSVGYETRNKNSVA | EASQRES | QQYHRLPLS | GP_Gibbs
11 nM | 6/6 | KIGMTLNTLMHQKNNVA | DLVQREN | QQYFRLPLS | En_Gen
440 pM | 6/6 | MISDLTMYGSRNKNSVA | DSSTRGK | QQYHRLPLS | En_HC
nd | 0/6 | IVSQLMLWGAHVKNSIA | EAVTRLN | QQYDRLPLF | En_Gen
5.3 nM | 5/6 | KLAQSTLYESRNKNSVA | WASTRLS | QQYHRLPLS | GP_HC
770 pM | 6/6 | KSIQSVLYESRNKNSVA | GASTRES | QQYHRLPLS | Ctrl
1.5 nM | 6/6 | KLQQSVEYESRNKNSVA | HASTRED | QQYHRLPLS | GP_HC
2.8 nM | 6/6 | SLHMMNMVGYANNANVA | NASQLFS | QHYFRLPLQ | En_Gibbs
11 nM | 6/6 | KLSQSVLYESRNKNSVA | WASTRIS | QQYHRLPLS | Ctrl
45 nM | 6/6 | NMQLQVRNGNNNKYNIA | AEMKRVY | QQYQRLPLS | En_Gibbs
3.8 nM | 6/6 | KLSQSVLYESRNKNSVA | WASTRES | QQYHALPLS | Ctrl
9.5 nM | 3/6 | MISQLMNMGQFAINSVA | QASYRNE | QQYDRLPLM | En_Gen
2.2 nM | 6/6 | KSSISQLGEKRNKNSVA | EASTRES | QQYHRLPLS | GP_HC
4.2 nM | 6/6 | KYSQSFLYESRNKNSVA | GASTRES | QEYHRLPLS | GP_HC
17 nM | 6/6 | HLMSLNLHYTGTLNSVA | EAEERQE | QHYARLPLM | En_Gibbs
59 nM | 1/6 | IVSQLMLWGWHAKNSIA | EAQTRLN | QQYDRLPLM | En_Gen
11 nM | 6/6 | MIGGTLMYGVMNRSNVA | EVSERLN | QQYDRLPLI | En_Gen
1.7 nM | 4/6 | KVEMSVPYEDRNKNSVA | HASVRES | QQYHRLPLS | GP_Gibbs
2.5 nM | 6/6 | KLPQSELYESRNKNSVA | NASTREE | QQYHRLPLS | GP_Gen
1.4 µM | 1/6 | KLSQSQLYESRNSNSVA | NASTRES | QQYHRLPLS | GP_Gen
11 nM | 6/6 | HMSALTLQGMRLRNSVA | QMTTREN | QQYDRLPLA | En_Gen
260 pM | 6/6 | KVSQGWLQESRNANNVA | NASQREN | QQYHRLPLS | GP_Gibbs
1.4 nM | 6/6 | KFSQSVLYESRDSNRVA | NASTRES | QQYHRLPLS | GP_HC
140 nM | 2/6 | YSSQSVLYESRNKNSVA | WASTREA | QQYHRLPLS | Ctrl
1.2 nM | 6/6 | WLNWEGQGSDRGMSNIA | DSDLRMA | QQYHRLPLS | En_Gibbs
9.4 nM | 6/6 | KTSQSVLYESRNDNSVA | WGSTRES | QQYHRLPLS | Ctrl

Excerpt, the final 7 entries:

CDR-L1,CDR-L2,CDR-L3,group,apparent Kd,replicates with signal
KLSQSQLYESRNSNSVA,NASTRES,QQYHRLPLS,GP_Gen,1.4 µM,1/6
HMSALTLQGMRLRNSVA,QMTTREN,QQYDRLPLA,En_Gen,11 nM,6/6
KVSQGWLQESRNANNVA,NASQREN,QQYHRLPLS,GP_Gibbs,260 pM,6/6
KFSQSVLYESRDSNRVA,NASTRES,QQYHRLPLS,GP_HC,1.4 nM,6/6
YSSQSVLYESRNKNSVA,WASTREA,QQYHRLPLS,Ctrl,140 nM,2/6
WLNWEGQGSDRGMSNIA,DSDLRMA,QQYHRLPLS,En_Gibbs,1.2 nM,6/6
KTSQSVLYESRNDNSVA,WGSTRES,QQYHRLPLS,Ctrl,9.4 nM,6/6